The numbers were not newly measured in patent publication US20210353564A1, “TREATMENTS FOR ZIKA VIRUS INFECTION” (Saint Louis University, priority 2018, published 2021), which cites them from elsewhere.

Amino acid sequences for entries named in this document (tags omitted).
UniProt P11511, whole entry, species assumed: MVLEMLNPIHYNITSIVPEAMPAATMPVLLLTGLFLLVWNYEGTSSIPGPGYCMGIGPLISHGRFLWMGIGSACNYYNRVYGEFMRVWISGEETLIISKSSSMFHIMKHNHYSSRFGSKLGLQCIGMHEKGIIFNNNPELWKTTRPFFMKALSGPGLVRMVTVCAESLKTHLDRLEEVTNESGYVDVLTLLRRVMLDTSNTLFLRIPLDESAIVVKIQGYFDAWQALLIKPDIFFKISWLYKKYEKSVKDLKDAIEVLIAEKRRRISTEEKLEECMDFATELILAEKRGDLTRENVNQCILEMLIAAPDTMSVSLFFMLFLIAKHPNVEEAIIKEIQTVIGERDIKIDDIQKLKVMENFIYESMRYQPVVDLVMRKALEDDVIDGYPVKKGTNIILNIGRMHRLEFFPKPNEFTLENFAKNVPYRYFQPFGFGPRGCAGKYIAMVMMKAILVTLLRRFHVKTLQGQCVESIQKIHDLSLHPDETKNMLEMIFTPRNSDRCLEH

As a reminder, the IC50 is the concentration at which inhibition is half-maximal.

Each structure is given as a SMILES string.

This series deals with aromatase (Homo sapiens, UniProt P11511). To be noted: read-out: aromatase inhibition IC50; cited from earlier work.

For `CCC(=C(c1ccc(O)cc1)c1ccc(OCCN)cc1)c1ccccc1` [Norendoxifen, N,N-didesmethyl-4-hydroxytamoxifen], the 50% inhibitory concentration (IC50) was 90 nM.
